Results: ChEMBL document CHEMBL1201862, “PubChem BioAssay data set” (2004)
This is one part of the list. These assays gave more results; the selection is not random. Activity calls are given as the source filed them. No cut-off for these calls is given here.

Target: T1, Transcriptional regulator ERG (Homo sapiens) (UniProt P11308)
T1 sequence (whole entry): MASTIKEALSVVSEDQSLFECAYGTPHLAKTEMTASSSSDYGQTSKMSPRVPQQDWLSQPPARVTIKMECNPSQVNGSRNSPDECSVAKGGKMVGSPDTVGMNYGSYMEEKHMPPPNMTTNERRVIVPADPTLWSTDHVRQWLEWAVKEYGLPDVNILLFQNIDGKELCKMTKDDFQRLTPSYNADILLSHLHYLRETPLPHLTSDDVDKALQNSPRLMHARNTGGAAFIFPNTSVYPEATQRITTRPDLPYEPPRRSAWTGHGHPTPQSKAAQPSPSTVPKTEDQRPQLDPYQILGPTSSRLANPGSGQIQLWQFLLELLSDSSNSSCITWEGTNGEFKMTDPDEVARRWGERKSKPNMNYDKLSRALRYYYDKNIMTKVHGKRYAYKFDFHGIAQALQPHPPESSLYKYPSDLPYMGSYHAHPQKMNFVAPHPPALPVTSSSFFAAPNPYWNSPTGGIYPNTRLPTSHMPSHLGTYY
Assay: qHTS for Small Molecule Inhibitors of the ERG Ets/DNA interaction.
Type: functional

| Compound | Potency |
| --- | --- |
| O=C(O)/C=C\C(=O)O | inactive |
